According to US20260284201A1, “COMPOSITIONS AND METHODS FOR TREATING TENDON AND BONE INJURIES” (The United States Government as represented by the …, priority 2023, published 2026):

B1: BP-BMP-2: BMP-2 covalently bound to BP molecules via a cat-K cleavable peptide sequence using click chemistry (conjugate, UniProt P12643 283-396, looked up)
Bone morphogenetic protein 2: QAKHKQRKRLKSSCKRHPLYVDFSDVGWNDWIVAPPGYHAFYCHGECPFPLADHLNSTNHAIVQTLVNSVNSKIPKACCVPTELSAISMLYLDENEKVVLKNYQDMVVEGCGCR
modifications: bisphosphonate via cathepsin K-cleavable peptide linker
B2: rhBMP-2: commercially available recombinant human BMP-2 (protein, UniProt P12643 283-396, looked up)
Bone morphogenetic protein 2: B1 Bone morphogenetic protein 2

Legend:
BMP receptors = assay: In vitro BMP receptor activation, dual luciferase assay (BRE plasmid / Rinella plasmid) in ATDC5 cells; format: cell-based
Experimental: FIG. 11 is a bar graph showing activation of BMP receptors (by measuring bone response element (BRE) expression) in cells treated with (1) Phosphate Buffered Saline (control), (2) rhBMP-2, (3) variant BMP-2, (4) Ctsk-digested BP-vBMP-2 or (5) undigested BP-vBMP-2. Luciferase expression from BRE plasmid was detected and normalized to control Rinella plasmid luciferase expression.
Activation of BMP receptors in vitro was assessed using a dual luciferase assay where a Rinella plasmid and BMP-responsive element (BRE) plasmid were transfected into ATDC5 cells known to express BMP receptors. These transgenic ATDC5 cells then underwent under one of the following five treatments: 1) commercially available rhBMP-2; 2) variant BMP-2; 3) Ctsk-digested BP-vBMP-2; 4) undigested BP-vBMP-2; or 5) phosphate buffered saline. Luciferase 1 expression from BRE plasmid was detected and normalized to control Rinella plasmid luciferase 2 expression (FIG. 11).

osteopenic mice = settings: systemic, 0.5 mg, 1 mg and 5 mg per mouse per day; cited from earlier work

Row | Molecule | activation of BMP receptors (BRE luciferase normalized to Rinella luciferase) (BMP receptors; Ctsk-digested) | activation of BMP receptors (BRE luciferase normalized to Rinella luciferase) (BMP receptors; undigested) | total bone volume (osteopenic mice)
1 | B1 | capable of activating BMP receptors in a similar fashion to commercially available rhBMP-2 | does not activate BMP receptors above the level of the control condition | –
2 | B2 | – | – | statistically significant increases in total bone volume
